Results: patent US20220265817A1, “THERAPEUTIC COMPOSITIONS AND METHODS FOR TREATING HEPATITIS B” (priority 2017, published 2022)
pEC50: −log10 of the molar value. Where “and” joins values, the source holds several entries; their conditions need not be identical. Equal entries are not always repeated. Where two headings read alike, the source gives them in different places.

What was measured:
[1] = tested on: D type HBV in primary human hepatocytes; test: microbe, parasite or virus in culture; format: cell-based; conditions: for pEC50: read-out: Inhibitor A EC50; for AVERAGE % INHIBITION: COMPOUND 22 0.00 μM
Protocol: (§1) The mouse liver perfusion was applied to isolate PHHs. The isolated hepatocytes were further purified by Percoll. The cells were resuspended with culture media and seeded into the 96-well plates (6×10^4 cell/well) or 48-well plates (1.2×10^5 cell/well). The PHHs were infected with a D type HBV one day post seeding (day 1).
(§2) On day 2, the test compounds were diluted and added into the cell culture plates. The culture media containing the compounds were refreshed every other day. The cell culture supernatants were collected on day 8 for the HBV DNA and antigen determinations.
(§3) The compounds were tested at 7 concentrations, 3-fold dilution, in triplicate.
(§4) Two compounds were tested at 5×5 matrix, in triplicate plates.
DNA in the culture supernatants harvested on days 8 were isolated with QIAamp 96 DNA Blood Kit (Qiagen-51161). For each sample, 100 μl of the culture supernatants was used to extract DNA. The DNA was eluted with 100 μl, 150 μl or 180 μl of AE. HBV DNA in the culture supernatants was quantified by qPCR. The combination effect was analyzed by the MacSynergy software. The primers are described below.

[2] = tested on: HBV rcDNA in HepDE19 cells; test: HepDE19 cell culture system, rcDNA quantitation using bDNA assay, MacSynergy II; format: cell-based, human hepatoma cell line
Protocol: In vitro combination studies were conducted using the method of Prichard and Shipman (Prichard M N, and Shipman C Jr., Antiviral Research, 1990, 14 (4-5), 181-205; and Prichard M N, et. al., MacSynergy II). HepDE19 cell culture system is a HepG2 (human hepatocarcinoma) derived cell line that supports HBV DNA replication and cccDNA formation in a tetracycline (Tet)-regulated manner and produces HBV rcDNA and a detectable reporter molecule dependent on the production and maintenance of cccDNA (Guo et al 2007. J. Virol 81:12472-12484). […] Following a 7 day-incubation of cells with compound combinations, the level of rcDNA present in the inhibitor-treated wells was measured using a Quantigene 2.0 bDNA assay kit (Affymetrix, Santa Clara, Calif.) with HBV specific custom probe set and manufacturers instructions. […] The RLU data from the single compound treated cells were analyzed using XL-Fit module in Microsoft Excel to determine EC50 values using a 4-parameter curve fitting algorithm. Concurrently, the effect of compounds on cell viability was assessed using replicate plates, plated at a density of 5,000 cells/well and incubated for 4 days, to determine the ATP content as a measure of cell viability using the cell-titer glo reagent (CTG; Promega Corporation, Madison, Wis.) as per manufacturer's instructions. […]

[3] = tested on: D type HBV in primary human hepatocytes (HBsAg); format: cell-based; conditions: for AVERAGE % INHIBITION: COMPOUND 22 0.00 μM
Protocol: as §1, §2, §3, §4
(§5) HBsAg/HBeAg in the culture supernatants harvested on days 8 were measured by the HBsAg/HBeAg ELISA kit (Autobio) according to the manual. The samples were diluted with PBS to get the signal in the range of the standard curve. The inhibition rates were calculated with the formula below. The combination effect was analyzed by the MacSynergy software.
% Inh. HBsAg=[1-HBsAg quantity of sample/HBV quantity of DMSO control]×100.

[4] = tested on: D type HBV in primary human hepatocytes (HBeAg); format: cell-based; conditions: for AVERAGE % INHIBITION: COMPOUND 22 0.00 μM
Protocol: as §1, §2, §3, §4, §5
% Inh. HBeAg=[1-HBeAg quantity of sample/HBV quantity of DMSO control]×100.

[5] = Hepatitis B virus, Hepatocyte, read-out: AVERAGE % […] DNA
[6] = PHH, determined in an earlier separate experiment

Compound: CC(C)OC(=O)OCOP(=O)(CO[C@H](C)Cn1cnc2c(N)ncnc21)OCOC(=O)OC(C)C.O=C(O)/C=C/C(=O)O [TDF, tenofovir disoproxil fumarate, reference compound]
- AVERAGE % INHIBITION HBV DNA ([1]; 3 replicates, Compound 24 0.00 nM, TDF nM: 10.00, 3.33, 1.11, 0.37, 0.12): 2.49%
- inhibition at 0.00012 µM [1, 5]: -19.3%
- inhibition at 0.00037 µM [1, 5]: -4.64%
- inhibition at 0.00333 µM [1, 5]: 24.9%
- inhibition at 0.01 µM [1, 5]: 22%
- inhibition at […] [1, 5]: 24.4%
- pEC50 ([1]; Hepatitis B virus, Hepatocyte): 8.29
- pEC50 [1]: 8.25

Compound: C=C1[C@H](CO)[C@@H](O)C[C@@H]1n1cnc2c(=O)[nH]c(N)nc21 [Entecavir]
- AVERAGE % INHIBITION (rcDNA) ([2]; 4 replicates, ETV 0.500 nM, SIRNA-NP ng/mL by row: r8 25, r9 8.333, r10 2.778, r11 0.926, r12 0.309, r13 0): 10.24%
- ADDITIVE INHIBITION ([2]; expected from additive interaction, ETV 0.5 nM, SIRNA-NP ng/mL by row: r30 25, r31 8.333, r32 2.778, r33 0.926, r34 0.309, r35 0): 10.24%

Compound: IFNα2a: pegylated interferon alpha 2a [reference compound]
- Inhibitor A EC50 ([1]; HBV DNA endpoint, PHH, determined in an earlier separate experiment (Table 18d)): 2.154 IU/mL
- Inhibitor A EC50 ([1]; HBV DNA, determined in an earlier separate experiment): 2.154 IU/mL
- AVERAGE % INHIBITION ([1]; IFNα2a 0.12 IU/mL): −18.56%
- AVERAGE % INHIBITION HBV DNA ([1]; IFNα2a 0.37 IU/mL alone): 22.81% and 38.46%
- AVERAGE % INHIBITION ([1]; IFNα2a 0.37 IU/mL): 6.59%
- AVERAGE % INHIBITION HBV DNA ([1]; IFNα2a 1.11 IU/mL alone): 32.66% and 43.03%
- AVERAGE % INHIBITION ([1]; IFNα2a 1.11 IU/mL): 28.08%
- AVERAGE % INHIBITION HBV DNA ([1]; IFNα2a 3.33 IU/mL alone): 46.92% and 59.88%
- AVERAGE % INHIBITION ([1]; IFNα2a 3.33 IU/mL): 52.39%
- AVERAGE % INHIBITION HBV DNA ([1]; IFNα2a 10.00 IU/mL alone): 58.66% and 61.87%
- AVERAGE % INHIBITION ([1]; IFNα2a 10.00 IU/mL): 59%
- Inhibitor A EC50 HBV DNA [1, 6]: 2.154 IU/mL
- Inhibitor A EC50 ([3]; HBsAg endpoint, PHH, determined in an earlier separate experiment (Table 18d)): 13.8 IU/mL
- Inhibitor A EC50 ([3]; HBsAg, determined in an earlier separate experiment): 13.8 IU/mL
- AVERAGE % INHIBITION HBsAg ([3]; IFNα2a 0.12 IU/mL alone): −4.08% and 1.56%
- AVERAGE % INHIBITION ([3]; IFNα2a 0.12 IU/mL): −1.67%
- AVERAGE % INHIBITION HBsAg ([3]; IFNα2a 0.37 IU/mL alone): 2.74% and 6.9%
- AVERAGE % INHIBITION ([3]; IFNα2a 0.37 IU/mL): 4.6%
- AVERAGE % INHIBITION HBsAg ([3]; IFNα2a 1.11 IU/mL alone): 10.57% and 14.91%
- AVERAGE % INHIBITION ([3]; IFNα2a 1.11 IU/mL): 8.8%
- AVERAGE % INHIBITION HBsAg ([3]; IFNα2a 3.33 IU/mL alone): 18.32% and 12.8%
- AVERAGE % INHIBITION ([3]; IFNα2a 3.33 IU/mL): 10.2%
- AVERAGE % INHIBITION HBsAg ([3]; IFNα2a 10.00 IU/mL alone): 22.77% and 24.94%
- AVERAGE % INHIBITION ([3]; IFNα2a 10.00 IU/mL): 20.1%
- Inhibitor A EC50 HBsAg [3, 6]: 13.8 IU/mL
- Inhibitor A EC50 [4]: 10.24 IU/mL
- Inhibitor A EC50 HBeAg [4]: 10.24 IU/mL
- AVERAGE % INHIBITION ([4]; IFNα2a 0.12 IU/mL): 7.42%
- AVERAGE % INHIBITION HBeAg ([4]; IFNα2a 0.37 IU/mL alone): −12.17% and −2.24%
- AVERAGE % INHIBITION ([4]; IFNα2a 0.37 IU/mL): 1.78%
- AVERAGE % INHIBITION ([4]; IFNα2a 1.11 IU/mL): 15.27%
- AVERAGE % INHIBITION HBeAg ([4]; IFNα2a 3.33 IU/mL alone): 6.47% and 14.38%
- AVERAGE % INHIBITION ([4]; IFNα2a 3.33 IU/mL): 17.16%
- AVERAGE % INHIBITION HBeAg ([4]; IFNα2a 10.00 IU/mL alone): 17.32% and 32.8%
- AVERAGE % INHIBITION ([4]; IFNα2a 10.00 IU/mL): 30.13%
